Results as given in ChEMBL document CHEMBL5727553.
This is a selection: effects in other tests are not listed, and their absence says nothing.

Chains of the proteins cited; added tags and fusions are not shown. Residues count along the entry.
UniProt P54289, 25-956 limits assumed: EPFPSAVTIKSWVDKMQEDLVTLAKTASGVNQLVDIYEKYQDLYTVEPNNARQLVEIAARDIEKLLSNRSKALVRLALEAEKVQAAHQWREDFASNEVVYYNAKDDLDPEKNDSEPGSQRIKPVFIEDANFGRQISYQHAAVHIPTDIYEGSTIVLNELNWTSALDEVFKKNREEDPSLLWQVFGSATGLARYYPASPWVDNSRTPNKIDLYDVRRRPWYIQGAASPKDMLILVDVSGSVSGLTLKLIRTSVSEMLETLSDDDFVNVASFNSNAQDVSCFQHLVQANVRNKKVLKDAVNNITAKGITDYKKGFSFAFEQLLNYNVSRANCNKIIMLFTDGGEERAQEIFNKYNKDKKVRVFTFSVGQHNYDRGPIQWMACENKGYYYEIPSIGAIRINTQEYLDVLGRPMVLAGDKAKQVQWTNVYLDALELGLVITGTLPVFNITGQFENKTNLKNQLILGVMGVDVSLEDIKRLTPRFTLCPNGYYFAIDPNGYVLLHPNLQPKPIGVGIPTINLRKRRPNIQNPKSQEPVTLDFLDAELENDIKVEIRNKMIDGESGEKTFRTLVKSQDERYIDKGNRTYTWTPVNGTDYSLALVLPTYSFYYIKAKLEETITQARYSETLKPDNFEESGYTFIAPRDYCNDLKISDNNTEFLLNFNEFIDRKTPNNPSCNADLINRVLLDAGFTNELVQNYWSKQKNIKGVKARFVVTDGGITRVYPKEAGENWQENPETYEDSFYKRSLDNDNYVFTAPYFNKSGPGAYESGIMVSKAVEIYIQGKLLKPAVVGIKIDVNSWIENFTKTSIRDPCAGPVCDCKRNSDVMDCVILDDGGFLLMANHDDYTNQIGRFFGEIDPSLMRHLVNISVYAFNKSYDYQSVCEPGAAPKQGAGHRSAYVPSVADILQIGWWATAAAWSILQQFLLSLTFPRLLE
UniProt P54289, 957-1103 limits assumed: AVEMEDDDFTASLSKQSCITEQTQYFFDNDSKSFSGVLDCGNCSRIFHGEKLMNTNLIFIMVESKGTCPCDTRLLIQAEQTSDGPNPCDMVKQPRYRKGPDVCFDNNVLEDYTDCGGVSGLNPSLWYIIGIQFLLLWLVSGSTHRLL

Biological target: Voltage-dependent calcium channel subunit alpha-2/delta-1 (Homo sapiens, UniProt P54289)

SMILES: O=C(c1cccs1)N(c1cn(-c2ccc(F)cc2)nn1)C1CCN(Cc2ccccc2)CC1
- Ki: > 5 µM
